Results on 1 compound are retold here after ChEMBL document CHEMBL1649375, “Design, synthesis and pharmacobiological evaluation of novel acrylic acid derivatives acting as lipoxygenase and cyclooxygenase-1 inhibitors with antioxidant and anti-inflammatory activities” (Eur J Med Chem, 2011).

This assay is described as follows: DPPH radical scavenging activity assessed as reducing ability at 0.05 mM after 60 mins. The class given is functional. Set-up: scale not given: the % may be the effect or the level left. The method in brief:
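DPPH in absolute ethanol mixed with equal volume of compound in DMSO (10 mM stock; final 0.05, 0.1, 0.2 mM); absorbance at 517 nm after 20 and 60 min at room temperature; % reducing ability. At least triplicate.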

With `CC(Cc1ccc(O)c(O)c1)C(C)Cc1ccc(O)c(O)c1` (stereo unspecified) [NORDIHYDROGUAIARETIC ACID], the Activity was determined as 83.1%.
